From PubChem BioAssay (Tox21) come the findings set out here.

Protein sequences, listed by entry. Tags and fused reporters are not part of them.
UniProt P11511, whole entry: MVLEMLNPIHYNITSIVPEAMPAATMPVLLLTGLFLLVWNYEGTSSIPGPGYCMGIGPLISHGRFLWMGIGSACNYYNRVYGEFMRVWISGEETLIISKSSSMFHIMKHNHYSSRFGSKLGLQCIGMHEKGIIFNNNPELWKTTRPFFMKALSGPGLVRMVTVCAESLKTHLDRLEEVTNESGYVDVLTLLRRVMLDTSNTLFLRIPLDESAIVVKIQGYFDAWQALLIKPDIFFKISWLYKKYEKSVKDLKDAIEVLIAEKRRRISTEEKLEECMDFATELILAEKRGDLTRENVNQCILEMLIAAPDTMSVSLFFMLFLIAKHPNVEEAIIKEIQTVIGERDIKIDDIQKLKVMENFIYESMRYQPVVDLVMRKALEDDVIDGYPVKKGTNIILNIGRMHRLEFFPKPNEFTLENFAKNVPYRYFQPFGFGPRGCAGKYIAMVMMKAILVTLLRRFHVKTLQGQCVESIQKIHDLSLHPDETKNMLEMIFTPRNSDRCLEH
UniProt P37231, whole entry: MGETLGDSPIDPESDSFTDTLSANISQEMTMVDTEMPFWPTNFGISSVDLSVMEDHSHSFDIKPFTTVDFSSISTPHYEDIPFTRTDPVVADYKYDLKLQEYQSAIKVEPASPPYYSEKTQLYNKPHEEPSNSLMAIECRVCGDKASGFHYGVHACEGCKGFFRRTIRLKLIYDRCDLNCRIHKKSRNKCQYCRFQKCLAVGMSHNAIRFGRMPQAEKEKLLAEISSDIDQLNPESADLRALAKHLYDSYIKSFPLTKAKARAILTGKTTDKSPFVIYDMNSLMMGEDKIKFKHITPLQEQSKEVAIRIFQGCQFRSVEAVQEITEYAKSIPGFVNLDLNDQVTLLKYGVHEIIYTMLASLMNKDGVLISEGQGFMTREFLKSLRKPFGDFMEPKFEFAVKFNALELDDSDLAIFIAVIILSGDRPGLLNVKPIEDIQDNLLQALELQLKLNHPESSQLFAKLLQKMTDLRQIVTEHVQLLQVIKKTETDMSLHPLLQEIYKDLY
UniProt P10275, whole entry: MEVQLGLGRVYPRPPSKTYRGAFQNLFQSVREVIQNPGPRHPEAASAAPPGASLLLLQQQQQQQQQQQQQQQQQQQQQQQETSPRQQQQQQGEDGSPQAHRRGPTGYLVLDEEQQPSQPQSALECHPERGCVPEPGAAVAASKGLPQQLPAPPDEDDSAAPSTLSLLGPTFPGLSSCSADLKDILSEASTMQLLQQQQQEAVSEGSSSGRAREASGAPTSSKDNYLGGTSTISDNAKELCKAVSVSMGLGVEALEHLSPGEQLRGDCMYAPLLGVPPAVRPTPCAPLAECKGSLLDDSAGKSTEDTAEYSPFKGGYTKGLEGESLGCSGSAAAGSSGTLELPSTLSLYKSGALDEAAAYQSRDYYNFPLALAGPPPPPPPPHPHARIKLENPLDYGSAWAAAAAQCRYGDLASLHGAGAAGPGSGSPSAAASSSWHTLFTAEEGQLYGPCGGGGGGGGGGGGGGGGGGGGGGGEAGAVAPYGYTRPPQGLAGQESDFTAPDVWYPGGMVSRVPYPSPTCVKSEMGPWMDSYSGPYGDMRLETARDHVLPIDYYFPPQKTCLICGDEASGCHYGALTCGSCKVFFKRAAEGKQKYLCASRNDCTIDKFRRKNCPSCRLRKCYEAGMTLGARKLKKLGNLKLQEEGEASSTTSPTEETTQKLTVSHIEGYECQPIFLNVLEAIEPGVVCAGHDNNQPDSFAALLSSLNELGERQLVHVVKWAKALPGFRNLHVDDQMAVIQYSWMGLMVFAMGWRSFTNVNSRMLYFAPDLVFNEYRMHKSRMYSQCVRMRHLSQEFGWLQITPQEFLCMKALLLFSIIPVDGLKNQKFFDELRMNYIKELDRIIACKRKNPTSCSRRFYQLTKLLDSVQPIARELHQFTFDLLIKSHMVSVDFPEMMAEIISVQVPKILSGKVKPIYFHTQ
UniProt P35869, whole entry: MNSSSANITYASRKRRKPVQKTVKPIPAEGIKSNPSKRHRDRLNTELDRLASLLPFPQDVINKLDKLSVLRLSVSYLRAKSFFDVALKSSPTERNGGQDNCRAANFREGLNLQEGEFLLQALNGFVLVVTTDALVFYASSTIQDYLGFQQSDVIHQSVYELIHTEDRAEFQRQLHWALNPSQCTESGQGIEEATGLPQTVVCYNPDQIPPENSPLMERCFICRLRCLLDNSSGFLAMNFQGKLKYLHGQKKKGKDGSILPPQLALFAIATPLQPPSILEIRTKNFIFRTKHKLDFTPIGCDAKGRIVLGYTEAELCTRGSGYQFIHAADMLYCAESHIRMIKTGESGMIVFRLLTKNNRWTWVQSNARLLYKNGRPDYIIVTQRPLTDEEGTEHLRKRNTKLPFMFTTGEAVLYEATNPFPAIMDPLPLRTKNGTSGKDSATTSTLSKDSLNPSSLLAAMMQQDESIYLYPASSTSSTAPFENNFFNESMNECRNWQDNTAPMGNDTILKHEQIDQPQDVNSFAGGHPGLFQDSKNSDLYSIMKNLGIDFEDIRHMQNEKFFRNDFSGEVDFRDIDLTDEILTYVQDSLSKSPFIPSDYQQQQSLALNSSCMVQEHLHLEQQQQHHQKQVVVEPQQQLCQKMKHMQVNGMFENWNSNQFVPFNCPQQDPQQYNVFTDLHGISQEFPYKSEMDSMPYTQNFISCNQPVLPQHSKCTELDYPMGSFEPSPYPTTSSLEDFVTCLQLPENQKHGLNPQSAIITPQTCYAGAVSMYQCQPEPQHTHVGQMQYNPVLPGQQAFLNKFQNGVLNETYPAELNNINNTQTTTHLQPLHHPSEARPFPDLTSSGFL
UniProt P03372, whole entry: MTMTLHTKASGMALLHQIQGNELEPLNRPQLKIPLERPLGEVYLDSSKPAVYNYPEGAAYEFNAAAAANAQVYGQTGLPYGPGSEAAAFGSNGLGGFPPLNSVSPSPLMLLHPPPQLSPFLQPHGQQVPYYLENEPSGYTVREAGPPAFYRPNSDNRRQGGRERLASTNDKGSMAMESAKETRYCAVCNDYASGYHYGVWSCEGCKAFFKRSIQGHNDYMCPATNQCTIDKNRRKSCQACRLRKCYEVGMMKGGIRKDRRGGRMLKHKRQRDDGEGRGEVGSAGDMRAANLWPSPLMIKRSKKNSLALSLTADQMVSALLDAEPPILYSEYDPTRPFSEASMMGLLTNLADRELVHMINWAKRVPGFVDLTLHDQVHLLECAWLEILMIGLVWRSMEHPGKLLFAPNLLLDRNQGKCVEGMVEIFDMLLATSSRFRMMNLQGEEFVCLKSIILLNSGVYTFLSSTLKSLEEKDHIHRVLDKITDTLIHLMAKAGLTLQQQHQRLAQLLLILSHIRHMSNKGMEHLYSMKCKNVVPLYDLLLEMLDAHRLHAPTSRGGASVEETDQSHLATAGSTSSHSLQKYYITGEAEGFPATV

“And” between values parts separate entries of the source, which are not always exact repeats. Equal values may be shown once. Only a part is listed here, and it is no random draw. Records with an inconclusive call do not appear. Some compounds were tested as several samples or in several runs, with calls that do not always agree. The source made the active and inactive calls. Unless noted, calls follow the shape of the dose curve; as a rule, active = well fitted curve in the direction sought with a large enough effect in the repeat runs; inconclusive = weak or mixed curves; inactive = no such curve, though single readings can be large; an effect the other way counts as inactive or inconclusive.

Experiment [1] in a line: qHTS assay for identifying genotoxic compounds that show differential cytotoxicity against isogenic chicken DT40 cell lines with known DNA damage response pathways - Rev3 mutant cell line (AID 743014; also: nearly all actives have a fitted effect of over 55% in size; also: potency is read from the fitted curve at half-maximal effect). (In general: qHTS replaces the single test concentration by a dilution series.)
A short description of experiment [2]: qHTS assay to identify small molecule antagonists of the androgen receptor (AR) signaling pathway - cell viability counter screen (AID 743033; also: nearly all actives have a fitted effect of over 45% in size). The settings on record: AR-bla HEK293 viability, CellTiter-Glo luminescence, 16 h.
Experiment [3] can be described thus: qHTS assay to identify small molecule antagonists of the androgen receptor (AR) signaling pathway using the MDA cell line - cell viability counter screen (AID 743041; also: nearly all actives have a fitted effect of over 45% in size). Conditions: MDA-kb2 viability, CellTiter-Fluor, 16 h, cells co-treated with R1881 androgen agonist. The method in brief:
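qHTS viability read-out; MDA-kb2 AR-luc; R1881-stimulated; 16 h exposure at 37C, 0% CO2; CellTiter-Fluor, 30 min; fluorescence intensity.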

The nature of experiment [4]: qHTS assay to identify small molecule antagonists of the thyroid receptor (TR) signaling pathway - cell viability counter screen (AID 743064). Also: nearly all actives have a fitted effect of over 50% in size. The method in brief:
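Rat GH3 pituitary tumor cells stably expressing two TR response elements driving luciferase were plated, rested 4 h, then dosed with library compounds and T3 (1 nM final). After 23.5 h at 37 °C, CellTiter-Fluor was added for 30 min and fluorescence recorded.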

Experiment [5] can be described thus: qHTS assay to identify small molecule antagonists of the estrogen receptor alpha (ER-alpha) signaling pathway - cell viability counter screen (AID 743074; calls by dose curve;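 also: HEK293 cells carrying ER-alpha-UAS-bla reporter stimulated with 17beta-estradiol; nearly all actives have a fitted effect of over 45% in size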). The settings on record: ERalpha-bla HEK293 viability, CellTiter-Glo luminescence, 18 h.
A short description of experiment [6]: qHTS assay to identify small molecule antagonists of the estrogen receptor alpha (ER-alpha) signaling pathway using the BG1 cell line - cell viability counter screen (AID 743081).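 Also: compound given together with 17beta-estradiol as the ER stimulus; nearly all actives have a fitted effect of over 45% in size.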 Also: potency is read from the fitted curve at half-maximal effect.
The target of a further experiment is Aromatase (Homo sapiens) (UniProt P11511). The experiment in a line: qHTS assay to identify aromatase inhibitors (AID 743083). Also: nearly all actives have a fitted effect of over 55% in size. The settings on record: MCF-7 aro ERE, testosterone-driven ERE luciferase, 24 h.
The nature of experiment [7]: qHTS assay to identify aromatase inhibitors - cell viability counter screen (AID 743084).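 Also: cells stimulated with testosterone during compound exposure; nearly all actives have a fitted effect of over 55% in size.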 Conditions: MCF-7 aro ERE viability, CellTiter-Fluor, 24 h.
The nature of experiment [8]: qHTS assay to identify small molecule that activate the aryl hydrocarbon receptor (AhR) signaling pathway - cell viability counter screen (AID 743086). Also: nearly all actives have a fitted effect of over 45% in size. Also: potency is read from the fitted curve at half-maximal effect.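 As to viability change, negative = cytotoxic: HepG2 liver cells carrying the AhR DRE luciferase reporter.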 The essentials: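 HepG2-AhR-luc (HG2L7.5c1) cells, 4000/well, were preincubated 5 h at 37C, exposed to compound in qHTS format for 24 hr at 37C, then given CellTiter-Fluor for 30 min; viability was read as fluorescence in the reporter wells.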

Experiment [9] concerns the target Peroxisome proliferator-activated receptor gamma (Homo sapiens) (UniProt P37231). Kind of experiment: qHTS assay to identify small molecule agonists of the peroxisome proliferator-activated receptor gamma (PPARg) signaling pathway (AID 743094; active = well fitted activation curve with a large enough effect in the signal ratio in the repeat runs, not every such curve was filed as active; the % refers to the signal ratio). Conditions: HEK293H PPARg-UAS-bla, beta-lactamase FRET ratio, 17 h. The essentials:
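Reporter activation was scored by fluorescence of cleaved LiveBLAzer B/G substrate (1 h, room temperature) in PPARg-bla HEK293H cells previously treated 17 h at 37C with DMSO-dissolved compounds.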

For experiment [10] the target is unchanged. Kind of experiment: qHTS assay to identify small molecule antagonists of the peroxisome proliferator-activated receptor gamma (PPARg) signaling pathway (AID 743191; calls by dose curve; also: nearly all actives have a fitted effect of over 30% in size; also: potency is read from the fitted curve at half-maximal effect). The method in brief:
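GeneBLAzer PPARg UAS-bla HEK293H cells carrying a UAS-driven beta-lactamase reporter were plated at 3000 cells/well, preincubated 5 h at 37C, then given compound for 17 h at 37C; LiveBLAzer B/G FRET substrate was read after 1 h at room temperature.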

Experiment [11] addresses Androgen receptor (Homo sapiens) (UniProt P10275). Kind of experiment: qHTS assay to identify small molecule agonists of the androgen receptor (AR) signaling pathway (AID 743036; active = well fitted activation curve with a large enough effect in the signal ratio in the repeat runs, with a control signal flat, not every such curve was filed as active; the % refers to the signal ratio). Conditions: HEK293 AR-UAS-bla GripTite, beta-lactamase FRET ratio, 16 h; at 62.4 µM (top of the series) unless noted.
Experiment [12] has the same target. The experiment in a line: qHTS assay to identify small molecule agonists of the androgen receptor (AR) signaling pathway using the MDA cell line (AID 743040; also: nearly all actives have a fitted effect of over 20% in size). Conditions: MDA-kb2 AR-luc cells, MMTV luciferase, 16 h, stronger effect = higher value; at 70.3 µM (top of the series) unless noted.
The test system of experiment [13] is thyroid hormone receptor (rat, GH3 cells). Kind of experiment: qHTS assay to identify small molecule agonists of the thyroid receptor (TR) signaling pathway (AID 743066; calls by dose curve). The settings on record: GH3.TRE-Luc cells, TR agonist luciferase, 24 h.
Experiment [14] has as its target Aryl hydrocarbon receptor (Homo sapiens) (UniProt P35869). Kind of experiment: qHTS assay to identify small molecule that activate the aryl hydrocarbon receptor (AhR) signaling pathway (AID 743085). Also: nearly all actives have a fitted effect of over 15% in size. Also: potency is read from the fitted curve at half-maximal effect.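 As to activation: HG2L7.5c1 human HepG2 liver cells with stably integrated DRE-driven firefly reporter.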
Experiment [15] addresses Estrogen receptor (Homo sapiens) (UniProt P03372). Kind of experiment: qHTS assay to identify small molecule agonists of the estrogen receptor alpha (ER-alpha) signaling pathway (AID 743075; calls by dose curve;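 also: HEK293 GripTite cells with ER-alpha and UAS-driven beta-lactamase reporter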). Conditions: HEK293 ER-alpha-UAS-bla, beta-lactamase FRET ratio, 18 h.
The target is the same in experiment [16]. Kind of experiment: qHTS assay to identify small molecule agonists of the estrogen receptor alpha (ER-alpha) signaling pathway using the BG1 cell line (AID 743079). Also: nearly all actives have a fitted effect of over 20% in size.
A short description of experiment [17]: qHTS assay to identify small molecule antagonists of the estrogen receptor alpha (ER-alpha) signaling pathway using the BG1 cell line (AID 743080; calls by dose curve;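 also: BG1 cells stimulated with 17beta-estradiol alongside compound; nearly all actives have a fitted effect of over 25% in size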). Conditions: BG1Luc4E2 ERE-luciferase antagonist mode, luminescence. The method in brief: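 BG1-Luc-4E2 cells (endogenous full-length ER-alpha, 4xERE luciferase) hormone-starved 5 days in charcoal-stripped FBS, plated 4,000/well for 24 h, then compound plus 17beta-estradiol for 21.5 h at 37 C; ONE-Glo luminescence read.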
% is scaled to controls: 0 for no effect and ±100 for the full control effect.

For the molecule `[NH4+].[O-][Cl+3]([O-])([O-])[O-]`, the Potency entry in experiment [1], in experiment [4], in [6], in [8] and in [10] was “inactive” throughout. Moreover, the activity change, negative = cytotoxicity in experiment [2] (at 58.5 µM (top of the series)) is inactive: -2.53%; in [2] (at 78.9 µM (top of the series)), inactive: -0.333%; in experiment [7] (at 70.3 µM (top of the series)) it was inactive: 9.25%; in [7] (at 95 µM (top of the series)), inactive: 6.95%. Moreover, the viability change, negative = cytotoxic in experiment [3] (at 70.3 µM (top of the series)) was inactive: 19.7%; in [3] (at 95 µM (top of the series)), inactive: 0.943%. Also, the activity, negative = cytotoxicity was inactive: -28.9% in [5] (at 69.4 µM (top of the series)) and inactive: 20.7% in [5] (at 79.1 µM (top of the series)). For the same molecule, the values for the activity, negative = inhibition with Aromatase (Homo sapiens) (at 70.3 µM (top of the series)) and with Aromatase (Homo sapiens) (at 95 µM (top of the series)) were inactive: 25.7% and inactive: 5.11%, respectively. Further, the activation was inactive: 1.41% in experiment [9] (at 57 µM (top of the series)) and inactive: -1.79% in [9] (at 78.9 µM (top of the series)).

As to `Cc1cccc([N+](=O)[O-])c1[N+](=O)[O-]`, in [2] (at 58.5 µM (top of the series)), the activity change, negative = cytotoxicity was inactive: -22.9%. Further, the activation in [11] was inactive: 14.6%; in experiment [13] (at 83.9 µM (top of the series)) it was inactive: -3.93%. Further, the activity change in [12] is inactive: 88.2%. Besides, the activity, negative = inhibition with Aromatase (Homo sapiens) (at 70.3 µM (top of the series)) was inactive: 24.2%. In [14], the Potency is active: 36.4 µM.

For the molecule `Cc1ccc([N+](=O)[O-])c([N+](=O)[O-])c1`, the Potency result in [1], in experiment [16] and in experiment [8] was “inactive” in each case. In addition, the viability change, negative = cytotoxic in [3] (at 70.3 µM (top of the series)) is inactive: -0.36%. In addition, the activation is inactive: -5.1% in [13] (at 83.9 µM (top of the series)); inactive: -8.8% in [13] (at 95.2 µM (top of the series)); inactive: 7.37% in [15] (at 70.1 µM (top of the series)); inactive: 4.35% in experiment [15] (at 79.1 µM (top of the series)); inactive: 0.83% in experiment [9] (at 57 µM (top of the series)); inactive: 5.63% in experiment [9] (at 78.9 µM (top of the series)). The activity, negative = cytotoxicity in experiment [5] (at 69.4 µM (top of the series)) was inactive: 5.28%; in [5] (at 79.1 µM (top of the series)) it was inactive: -12.6%. Besides, the activity change, negative = inhibition in [17] (at 70.3 µM (top of the series)) is inactive: 44.3%. For the same molecule, the activity, negative = inhibition in the experiment with Aromatase (Homo sapiens) (at 70.3 µM (top of the series)) was inactive: -4.55%. Also, the Potency in [10] was active: 6.92 µM.

As to `O=[N+]([O-])c1cccc([N+](=O)[O-])c1`, in experiment [1], the Potency entry is “inactive and active: 71.5 µM”. Further, the values for the activity change, negative = cytotoxicity in experiment [2] (at 58.5 µM (top of the series)) and in experiment [7] (at 70.3 µM (top of the series)) were inactive: 7.3% and inactive: 12.4%, respectively. Besides, the viability change, negative = cytotoxic in experiment [3] (at 70.3 µM (top of the series)) was inactive: 5.36%; in experiment [3] (at 95 µM (top of the series)) it was inactive: -34.4%. Besides, the Potency result in experiment [4], in experiment [16], in experiment [6] and in experiment [8] was “inactive” throughout. The activation in [13] (at 83.9 µM (top of the series)) is inactive: -0.897%; in [13] (at 95.2 µM (top of the series)), inactive: -4.79%; in experiment [15] (at 70.1 µM (top of the series)), inactive: 0.415%; in experiment [15] (at 79.1 µM (top of the series)), inactive: -0.676%; in experiment [9] (at 57 µM (top of the series)), inactive: 4.05%; in [9] (at 78.9 µM (top of the series)), inactive: -9.15%. In addition, the activity, negative = cytotoxicity in experiment [5] (at 69.4 µM (top of the series)) is inactive: -11.3%. Besides, the activity, negative = inhibition is inactive: 9.37% with Aromatase (Homo sapiens) (at 70.3 µM (top of the series)) and inactive: 26.6% with Aromatase (Homo sapiens) (at 95 µM (top of the series)).

Regarding `COP(=S)(Cl)OC`, in experiment [10], the Potency result is “inactive”.

Turning to `Nc1cc([N+](=O)[O-])cc([N+](=O)[O-])c1O`, the Potency result in experiment [1], in experiment [16] and in [14] was “inactive” in each case. Also, the activation in experiment [13] (at 95.2 µM (top of the series)) was inactive: -4.04%; in experiment [15] (at 79.1 µM (top of the series)), inactive: -4.3%; in [9] (at 78.9 µM (top of the series)), inactive: -6.02%. For the same molecule, the activity change, negative = inhibition in experiment [17] (at 95 µM (top of the series)) is inactive: -9.12%. Also, the figures for the Potency in experiment [6] and in [8] were active: 17.6 µM and active: 24.9 µM, respectively. Also, in the experiment with Aromatase (Homo sapiens) (at 95 µM (top of the series)), the activity, negative = inhibition is inactive: -13.6%.

Turning to `Cc1c([N+](=O)[O-])cccc1[N+](=O)[O-]`, the Potency result in [1], in experiment [4], in experiment [6], in experiment [14] and in experiment [8] was “inactive” each time. The activity change, negative = cytotoxicity was inactive: -0.963% and inactive: 2.12% in [2] (at 58.5 µM (top of the series)); inactive: -0.135% and inactive: -5.67% in experiment [7] (at 70.3 µM (top of the series)). In addition, the viability change, negative = cytotoxic in experiment [3] (at 70.3 µM (top of the series)) is inactive: 5.93% and inactive: 0.962%. Further, the activation is inactive: -4.77% and inactive: 3.36% in experiment [13] (at 83.9 µM (top of the series)); inactive: -0.574% and inactive: -2.56% in experiment [9] (at 57 µM (top of the series)). For the same molecule, the activity, negative = cytotoxicity in experiment [5] (at 69.4 µM (top of the series)) was inactive: 7.56%. Moreover, the activity change, negative = inhibition in experiment [17] (at 70.3 µM (top of the series)) is inactive: -1.13% and inactive: 1.8%. Also, the activity, negative = inhibition in the experiment with Aromatase (Homo sapiens) (at 70.3 µM (top of the series)) is inactive: 2.02% and inactive: -5.63%.
